{"source": "paper PMC3572206", "about": "(Biomaterials, 2012)", "origin": "cited, not measured here", "conditions": "ref [11]; cited from earlier work"}
{"substance": "Nitric oxide", "values": [{"measurement": "halflife in vivo", "result": "about 5 s"}]}
